# Tested on: kaolin oedema
# Test: comparison of the therapeutic range
# Details: rats, oral
structure (smiles),measurement,value
CCCCC1C(=O)N(c2ccccc2)N(c2ccccc2)C1=O [Phenylbutazone],Therapeutic range ED50 ulcer / ED50 kaolin oedema,1.48
